The values below are quoted from earlier work in US12421221B2 (ONCOBIX CO., LTD., priority 2019, dated 2025).

The test system of the data set is ALK positive NSCLC. To be noted: clinical study, cited from earlier work.

As to `C[C@@H](Oc1cc(-c2cnn(C3CCNCC3)c2)cnc1N)c1c(Cl)ccc(F)c1Cl` [Crizotinib, crizotinib], the progress-free survival (lung cancer patients (3 months of chemotherapeutic group)) is listed as 7.7 months. Also, the tumor response rate result (lung cancer patients) was “about 65%”.
